{"source": "patent US6958402B2", "about": "“3-(imidazolyl)-2-alkoxypropanoic acids” (Pfizer, Inc., priority 2002, dated 2005)", "biological_target": "T1, human CPN (Homo sapiens, UniProt P15169)", "T1 sequence (P15169 21-458)": "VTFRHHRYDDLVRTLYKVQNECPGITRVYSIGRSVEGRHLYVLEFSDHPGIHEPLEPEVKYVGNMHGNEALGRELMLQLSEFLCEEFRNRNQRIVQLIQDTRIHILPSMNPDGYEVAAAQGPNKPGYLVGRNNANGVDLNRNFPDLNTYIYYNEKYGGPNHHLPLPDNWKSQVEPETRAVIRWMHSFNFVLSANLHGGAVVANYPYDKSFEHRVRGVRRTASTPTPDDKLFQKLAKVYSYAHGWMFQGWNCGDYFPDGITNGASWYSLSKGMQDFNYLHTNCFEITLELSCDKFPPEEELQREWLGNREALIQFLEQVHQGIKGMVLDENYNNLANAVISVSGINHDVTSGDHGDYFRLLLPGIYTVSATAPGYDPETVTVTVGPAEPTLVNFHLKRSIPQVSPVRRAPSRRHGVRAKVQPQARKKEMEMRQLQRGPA", "T1 sequence (P22792 22-545 partner)": "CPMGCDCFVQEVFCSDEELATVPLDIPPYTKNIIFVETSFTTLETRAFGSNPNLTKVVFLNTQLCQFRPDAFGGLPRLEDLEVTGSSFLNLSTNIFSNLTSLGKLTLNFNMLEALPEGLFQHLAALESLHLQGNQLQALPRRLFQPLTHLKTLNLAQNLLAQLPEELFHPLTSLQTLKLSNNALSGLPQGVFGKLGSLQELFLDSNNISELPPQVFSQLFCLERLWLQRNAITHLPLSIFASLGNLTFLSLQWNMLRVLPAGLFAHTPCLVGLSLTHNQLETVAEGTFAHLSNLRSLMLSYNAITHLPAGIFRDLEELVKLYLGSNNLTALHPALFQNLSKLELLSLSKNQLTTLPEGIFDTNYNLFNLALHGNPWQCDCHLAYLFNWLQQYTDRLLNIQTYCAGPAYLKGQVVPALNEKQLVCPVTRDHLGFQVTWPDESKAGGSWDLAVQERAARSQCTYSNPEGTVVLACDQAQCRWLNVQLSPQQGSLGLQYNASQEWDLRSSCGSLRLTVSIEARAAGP", "experiment": "CPN Ki determination (TAFIa assay with human CPN substituted for TAFIa)", "format": "biochemical", "experimental": "A number of different dilutions of the test compound in water were made up. To 20 μl of each dilution was added 150 μl of HEPES buffer and 10 μl of TAFIa, which was then pre-incubated for 15 minutes at 24° C. To each dilution was then added 20 μl furylacryloyl-alanyl-lysine (FAAL) at a standard concentration. Substrate turnover was measured by reading the absorbance of the reaction mixture at 330 nm every 15 seconds for 30 minutes. The reaction was performed at 24° C. and samples were mixed for 3 seconds prior to each absorbance reading.\nA graph of % inhibition against test compound concentration was then plotted; from which was calculated the IC50 value. The Ki value was then calculated using the Cheng-Prusoff equation.\nThe selectivity of the compounds of the present invention for TAFIa over CPN was determined by calculating the Ki of the compounds of the present invention for CPN, then comparing it to the Ki for TAFIa. The Ki was calculated using the assay for the calculation of TAFIa Ki, but substituting 10 μl of human CPN for 10 μl of TAFIa.", "note": "pKi: −log10 of the molar value.", "data": [{"smiles": "NCCO[C@@H](Cc1cn(CCC2CCCCC2)cn1)C(=O)O", "note": "[Example 5, (2S)-(−)-2-(2-Aminoethoxy)-3-[1-(2-cyclohexylethyl)-1H-imidazol-4-yl]propanoic acid]", "values": [{"measurement": "pKi", "value": "< 5.00"}, {"measurement": "Selectivity for TAFIa over CPN", "setting": "Ki for CPN compared to Ki for TAFIa", "value": ">1000"}]}]}
